Biological target: HiBiT G1202R Variant 1 EML4-ALK (Homo sapiens, UniProt Q9UM73, G1202R)
Assay type: cell-based
Conditions: read-out: BAF3 Cellular Degradation - HiBiT G1202R Variant 1 EML4-ALK: DC50; Ba/F3 cells, 0.0003-2 μM, 4 hours

The chains behind the UniProt entries cited, without tags or fusion partners. A line that says so, or that is headed by a name, gives the form on record, which may keep a tag or linker.
UniProt Q9UM73, with tags, fused parts or gaps G1202R: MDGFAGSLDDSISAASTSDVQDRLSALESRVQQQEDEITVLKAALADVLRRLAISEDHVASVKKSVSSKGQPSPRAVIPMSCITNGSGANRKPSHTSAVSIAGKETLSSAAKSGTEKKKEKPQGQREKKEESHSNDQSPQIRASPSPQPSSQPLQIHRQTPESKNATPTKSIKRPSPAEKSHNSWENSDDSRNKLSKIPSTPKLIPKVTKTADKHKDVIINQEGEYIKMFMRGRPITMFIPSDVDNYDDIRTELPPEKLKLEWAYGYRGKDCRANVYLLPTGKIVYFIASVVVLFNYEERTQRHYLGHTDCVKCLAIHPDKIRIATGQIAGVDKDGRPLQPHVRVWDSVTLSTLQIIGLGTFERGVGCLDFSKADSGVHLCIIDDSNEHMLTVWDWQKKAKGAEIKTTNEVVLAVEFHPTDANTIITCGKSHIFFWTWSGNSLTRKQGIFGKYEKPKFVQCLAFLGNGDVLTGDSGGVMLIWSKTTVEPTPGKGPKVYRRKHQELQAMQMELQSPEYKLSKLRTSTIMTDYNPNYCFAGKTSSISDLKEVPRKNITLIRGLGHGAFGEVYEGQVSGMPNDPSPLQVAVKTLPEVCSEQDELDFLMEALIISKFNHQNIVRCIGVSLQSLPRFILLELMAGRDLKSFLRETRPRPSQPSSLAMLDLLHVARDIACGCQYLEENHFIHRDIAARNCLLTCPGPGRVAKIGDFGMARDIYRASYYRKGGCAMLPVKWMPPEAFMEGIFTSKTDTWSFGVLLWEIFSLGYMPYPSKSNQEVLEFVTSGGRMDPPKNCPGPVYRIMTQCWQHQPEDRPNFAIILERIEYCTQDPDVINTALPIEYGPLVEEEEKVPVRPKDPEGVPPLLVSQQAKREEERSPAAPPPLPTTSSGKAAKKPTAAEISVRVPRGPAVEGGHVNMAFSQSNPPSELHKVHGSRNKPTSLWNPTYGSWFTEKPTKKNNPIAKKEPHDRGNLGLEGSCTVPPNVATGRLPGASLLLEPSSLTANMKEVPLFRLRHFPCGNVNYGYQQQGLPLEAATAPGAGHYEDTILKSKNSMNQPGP

COc1cc(CCN2CCC(c3ccc4c(c3)CN(C3CCC(=O)NC3=O)C4=O)CC2)c(C)cc1Nc1ncc(Cl)c(Nc2ccccc2S(=O)(=O)C(C)C)n1 (stereo not shown) [Compound 27, 3-(5-(1-(4-((5-chloro-4-((2-(isopropylsulfonyl)phenyl)amino)pyrimidin-2-yl)amino)-5-methoxy-2-methylphenethyl)piperidin-4-yl)-1-oxoisoindolin-2-yl)piperidine-2,6-dione]
DC50: 8 nM

From patent US20240336643A1, “BIFUNCTIONAL COMPOUNDS THAT DEGRADE ALK AND USES THEREOF” (DANA-FARBER CANCER INSTITUTE, INC., priority 2021, published 2024)
